Assay results: patent US7786308B2 (priority 2005, dated 2010)
Some compounds may have been tested in ways that are not shown here.

Sequences of proteins named here, by UniProt entry; tags and fusion partners are left off.
UniProt P20309, whole entry: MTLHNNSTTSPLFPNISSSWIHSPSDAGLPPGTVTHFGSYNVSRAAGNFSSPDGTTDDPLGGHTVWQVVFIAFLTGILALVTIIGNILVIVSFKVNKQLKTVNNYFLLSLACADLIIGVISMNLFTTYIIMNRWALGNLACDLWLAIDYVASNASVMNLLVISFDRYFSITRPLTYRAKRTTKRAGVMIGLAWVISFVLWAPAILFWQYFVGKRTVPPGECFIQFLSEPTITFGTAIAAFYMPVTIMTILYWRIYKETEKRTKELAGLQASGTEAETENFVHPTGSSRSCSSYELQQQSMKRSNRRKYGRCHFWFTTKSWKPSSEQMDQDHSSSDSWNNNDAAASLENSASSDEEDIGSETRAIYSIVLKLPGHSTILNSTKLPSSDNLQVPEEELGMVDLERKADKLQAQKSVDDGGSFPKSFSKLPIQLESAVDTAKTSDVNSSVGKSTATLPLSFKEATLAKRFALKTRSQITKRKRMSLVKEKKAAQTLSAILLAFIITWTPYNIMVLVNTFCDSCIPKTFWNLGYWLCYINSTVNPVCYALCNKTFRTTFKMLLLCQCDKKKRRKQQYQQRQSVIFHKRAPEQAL
UniProt P08173, whole entry: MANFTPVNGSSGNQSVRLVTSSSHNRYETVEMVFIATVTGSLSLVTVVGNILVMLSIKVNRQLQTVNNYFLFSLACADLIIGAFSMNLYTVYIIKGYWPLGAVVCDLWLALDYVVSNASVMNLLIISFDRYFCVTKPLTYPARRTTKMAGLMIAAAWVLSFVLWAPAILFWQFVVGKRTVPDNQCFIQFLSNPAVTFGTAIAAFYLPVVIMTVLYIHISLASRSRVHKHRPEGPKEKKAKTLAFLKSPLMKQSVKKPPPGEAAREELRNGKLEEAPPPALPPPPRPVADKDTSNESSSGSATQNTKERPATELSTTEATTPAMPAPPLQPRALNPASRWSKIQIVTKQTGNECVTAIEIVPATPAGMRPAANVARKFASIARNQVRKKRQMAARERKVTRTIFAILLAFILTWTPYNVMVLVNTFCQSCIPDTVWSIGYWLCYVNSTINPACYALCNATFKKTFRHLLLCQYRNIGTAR
UniProt P11229, whole entry: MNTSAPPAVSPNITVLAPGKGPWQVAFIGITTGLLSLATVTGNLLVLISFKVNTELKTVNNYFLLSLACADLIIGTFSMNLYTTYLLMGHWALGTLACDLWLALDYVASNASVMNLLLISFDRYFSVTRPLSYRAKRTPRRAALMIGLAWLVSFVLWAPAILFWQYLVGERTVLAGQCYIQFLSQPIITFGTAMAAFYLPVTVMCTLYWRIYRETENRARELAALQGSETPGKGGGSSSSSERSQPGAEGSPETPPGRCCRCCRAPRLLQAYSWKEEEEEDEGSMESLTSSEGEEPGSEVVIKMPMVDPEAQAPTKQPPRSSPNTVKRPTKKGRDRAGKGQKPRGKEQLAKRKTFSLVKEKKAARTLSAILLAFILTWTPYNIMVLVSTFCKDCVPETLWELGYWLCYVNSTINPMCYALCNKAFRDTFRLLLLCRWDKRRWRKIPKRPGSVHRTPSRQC
UniProt P08172, whole entry: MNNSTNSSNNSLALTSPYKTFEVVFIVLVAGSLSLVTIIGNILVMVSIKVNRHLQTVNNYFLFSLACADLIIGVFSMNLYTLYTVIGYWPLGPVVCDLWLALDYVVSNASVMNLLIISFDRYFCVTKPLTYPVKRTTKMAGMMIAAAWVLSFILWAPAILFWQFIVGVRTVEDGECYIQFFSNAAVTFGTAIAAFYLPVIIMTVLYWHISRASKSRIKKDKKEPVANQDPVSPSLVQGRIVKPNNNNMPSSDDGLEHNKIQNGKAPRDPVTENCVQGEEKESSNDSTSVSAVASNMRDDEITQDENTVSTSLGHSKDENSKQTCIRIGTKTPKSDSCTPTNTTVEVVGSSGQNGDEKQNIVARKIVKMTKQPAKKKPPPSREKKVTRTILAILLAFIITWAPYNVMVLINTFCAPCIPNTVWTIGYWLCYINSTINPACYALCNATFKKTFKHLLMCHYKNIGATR

Key:
Type in all cases: cell-based
Details in all cases: 100% efficacy is the maximum response obtained with the Carbachol control
M3 muscarinic receptor = M3 muscarinic receptor (Homo sapiens, UniProt P20309); assay: Functional mobilization of intracellular calcium (FLIPR), M3-CHO cells
M4 muscarinic receptor = M4 muscarinic receptor (Homo sapiens, UniProt P08173); assay: Functional mobilization of intracellular calcium (FLIPR), M4-CHO cells
M1 muscarinic receptor = M1 muscarinic receptor (Homo sapiens, UniProt P11229); assay: Functional mobilization of intracellular calcium (FLIPR), M1-CHO cells
M2 muscarinic receptor = M2 muscarinic receptor (Homo sapiens, UniProt P08172); assay: Functional mobilization of intracellular calcium (FLIPR), M2-CHO cells

SMILES	M3 Efficacy (M3 muscarinic receptor)	M4 Efficacy (M4 muscarinic receptor)	M1 Efficacy (M1 muscarinic receptor)	M2 Efficacy (M2 muscarinic receptor)
CC(=O)N(c1ccc(F)cc1)C1CCN(C2CC3CCC(C2)N3C(=O)OCC(C)(C)C)CC1 (centres unmarked)	+ (efficacy was calculated to be less than 25%)	+ (efficacy was calculated to be less than 25%)	++ (efficacy was calculated to be from 100% to 25%)	+ (efficacy was calculated to be less than 25%)
CC(=O)N(c1ccc(F)cc1)C1CCN(C2CC3CCC(C2)N3C(=O)OC2CCC2)CC1 (centres unmarked)	+ (efficacy was calculated to be less than 25%)	+ (efficacy was calculated to be less than 25%)	++ (efficacy was calculated to be from 100% to 25%)	+ (efficacy was calculated to be less than 25%)
CCOC(=O)N1C2CCC1CC(N1CCC(N(C(=O)N(C)C)c3ccc(F)cc3)CC1)C2 (centres unmarked)	+ (efficacy was calculated to be less than 25%)	++ (efficacy was calculated to be from 100% to 25%)	++ (efficacy was calculated to be from 100% to 25%)	+ (efficacy was calculated to be less than 25%)
CCOC(=O)N1C2CCC1CC(N1CCC(N(C(C)=O)c3ccc(OC)cc3)CC1)C2 (centres unmarked)	+ (efficacy was calculated to be less than 25%)	++ (efficacy was calculated to be from 100% to 25%)	++ (efficacy was calculated to be from 100% to 25%)	+ (efficacy was calculated to be less than 25%)
CCOC(=O)N1C2CCC1CC(N1CCC(N(C(C)=O)c3cccc(F)c3)CC1)C2 (centres unmarked)	+ (efficacy was calculated to be less than 25%)	++ (efficacy was calculated to be from 100% to 25%)	++ (efficacy was calculated to be from 100% to 25%)	+ (efficacy was calculated to be less than 25%)
COCCOC(=O)N1C2CCC1CC(N1CCC(N(C(C)=O)c3ccc(F)cc3)CC1)C2 (centres unmarked)	+ (efficacy was calculated to be less than 25%)	++ (efficacy was calculated to be from 100% to 25%)	++ (efficacy was calculated to be from 100% to 25%)	+ (efficacy was calculated to be less than 25%)
CC(=O)N(c1ccc(F)cc1)C1CCN(C2CC3CCC(C2)N3C(=O)N(C)C)CC1 (centres unmarked)	+ (efficacy was calculated to be less than 25%)	+ (efficacy was calculated to be less than 25%)	+ (efficacy was calculated to be less than 25%)	+ (efficacy was calculated to be less than 25%)
CC(=O)N(c1ccc(F)cc1)C1CCN(C2CC3CCC(C2)N3C(=O)OCCF)CC1 (centres unmarked)	+ (efficacy was calculated to be less than 25%)	++ (efficacy was calculated to be from 100% to 25%)	++ (efficacy was calculated to be from 100% to 25%)	+ (efficacy was calculated to be less than 25%)
COC(=O)N1C2CCC1CC(N1CCC(N(C(C)=O)c3ccc(F)cc3)CC1)C2 (centres unmarked)	+ (efficacy was calculated to be less than 25%)	++ (efficacy was calculated to be from 100% to 25%)	++ (efficacy was calculated to be from 100% to 25%)	+ (efficacy was calculated to be less than 25%)
CC(=O)N(c1ccc(F)cc1)C1CCN(C2CC3CCC(C2)N3S(=O)(=O)c2ccccc2)CC1 (centres unmarked)	+ (efficacy was calculated to be less than 25%)	+ (efficacy was calculated to be less than 25%)	++ (efficacy was calculated to be from 100% to 25%)	+ (efficacy was calculated to be less than 25%)
CCON=C1CCC(N2CCC(N(C(=O)OC)c3ccc(F)cc3)CC2)CC1 (centres unmarked)	+ (efficacy was calculated to be less than 25%)	++ (efficacy was calculated to be from 100% to 25%)	++ (efficacy was calculated to be from 100% to 25%)	++ (efficacy was calculated to be from 100% to 25%)
CCOC(=O)N1C2CCC1CC(N1CCC(N(C(C)=O)c3ccc(F)cc3)CC1)C2 (centres unmarked)	+ (efficacy was calculated to be less than 25%)	++ (efficacy was calculated to be from 100% to 25%)	++ (efficacy was calculated to be from 100% to 25%)	+ (efficacy was calculated to be less than 25%)
CCCNC(=O)N(c1ccc(F)cc1)C1CCN(C2CCOCC2)CC1	–	+ (efficacy was calculated to be less than 25%)	+ (efficacy was calculated to be less than 25%)	+ (efficacy was calculated to be less than 25%)
CCOC(=O)N1C2CCC1CC(N1CCC(N(C(=O)C(C)C)c3ccc(F)cc3)CC1)C2 (centres unmarked)	+ (efficacy was calculated to be less than 25%)	++ (efficacy was calculated to be from 100% to 25%)	++ (efficacy was calculated to be from 100% to 25%)	+ (efficacy was calculated to be less than 25%)
CCOC(=O)N1C2CCC1CC(N1CCC(N(C(C)=O)c3ccccc3C)CC1)C2 (centres unmarked)	+ (efficacy was calculated to be less than 25%)	++ (efficacy was calculated to be from 100% to 25%)	++ (efficacy was calculated to be from 100% to 25%)	+ (efficacy was calculated to be less than 25%)
CC(=O)N(c1ccc(F)cc1)C1CCN(C2CC3CCC(C3)C2)CC1 (centres unmarked)	+ (efficacy was calculated to be less than 25%)	+ (efficacy was calculated to be less than 25%)	++ (efficacy was calculated to be from 100% to 25%)	+ (efficacy was calculated to be less than 25%)
CCOC(=O)N1C2CCC1CC(N1CCC(N(C(C)=O)c3ccc(F)cc3F)CC1)C2 (centres unmarked)	++ (efficacy was calculated to be from 100% to 25%)	+ (efficacy was calculated to be less than 25%)	++ (efficacy was calculated to be from 100% to 25%)	+ (efficacy was calculated to be less than 25%)
CCOC(=O)N1C2CCC1CC(N1CCC(N(C(C)=O)c3cccc(C(=O)OC)c3)CC1)C2 (centres unmarked)	+ (efficacy was calculated to be less than 25%)	+ (efficacy was calculated to be less than 25%)	++ (efficacy was calculated to be from 100% to 25%)	+ (efficacy was calculated to be less than 25%)
CC(=O)N(c1ccc(F)cc1)C1CCN(C2CC3CCC(C2)N3C(=O)OC(C)C)CC1 (centres unmarked)	+ (efficacy was calculated to be less than 25%)	+ (efficacy was calculated to be less than 25%)	++ (efficacy was calculated to be from 100% to 25%)	+ (efficacy was calculated to be less than 25%)
CCCNC(=O)N(c1ccc(F)cc1)C1CCN(C2CCN(C(=O)OCC)CC2)CC1	–	++ (efficacy was calculated to be from 100% to 25%)	++ (efficacy was calculated to be from 100% to 25%)	+ (efficacy was calculated to be less than 25%)
CCOC(=O)N1C2CCC1CC(N1CCC(N(C(C)=O)c3ccccc3)CC1)C2 (centres unmarked)	+ (efficacy was calculated to be less than 25%)	++ (efficacy was calculated to be from 100% to 25%)	++ (efficacy was calculated to be from 100% to 25%)	+ (efficacy was calculated to be less than 25%)
COC(=O)N(c1ccc(F)cc1)C1CCN(C2CC3CCC(C3)C2)CC1 (centres unmarked)	+ (efficacy was calculated to be less than 25%)	++ (efficacy was calculated to be from 100% to 25%)	++ (efficacy was calculated to be from 100% to 25%)	+ (efficacy was calculated to be less than 25%)
CC(=O)N(c1ccc(F)cc1)C1CCN(C2CC3CCC(C2)N3C(=O)c2ccccc2)CC1 (centres unmarked)	+ (efficacy was calculated to be less than 25%)	+ (efficacy was calculated to be less than 25%)	++ (efficacy was calculated to be from 100% to 25%)	+ (efficacy was calculated to be less than 25%)
CCOC(=O)N1CCC(N2CCC(N(C(C)=O)c3ccc(F)cc3)CC2)CC1	++ (efficacy was calculated to be from 100% to 25%)	++ (efficacy was calculated to be from 100% to 25%)	++ (efficacy was calculated to be from 100% to 25%)	+ (efficacy was calculated to be less than 25%)
CCCNC(=O)N(c1ccc(F)cc1)C1CCN(CC2CC3CCC2C3)CC1 (centres unmarked)	–	+ (efficacy was calculated to be less than 25%)	+ (efficacy was calculated to be less than 25%)	+ (efficacy was calculated to be less than 25%)
CCOC(=O)N1C2CCC1CC(N1CCC(N(C(C)=O)c3ccc(Cl)cc3)CC1)C2 (centres unmarked)	++ (efficacy was calculated to be from 100% to 25%)	++ (efficacy was calculated to be from 100% to 25%)	++ (efficacy was calculated to be from 100% to 25%)	+ (efficacy was calculated to be less than 25%)
CCCNC(=O)N(c1ccc(F)cc1)C1CCN(C2CC3CCC2C3)CC1 (centres unmarked)	–	+ (efficacy was calculated to be less than 25%)	+ (efficacy was calculated to be less than 25%)	+ (efficacy was calculated to be less than 25%)
CCCON=C1CCC(N2CCC(N(C(C)=O)c3ccc(F)cc3)CC2)CC1 (centres unmarked)	–	++ (efficacy was calculated to be from 100% to 25%)	++ (efficacy was calculated to be from 100% to 25%)	+ (efficacy was calculated to be less than 25%)
CCCNC(=O)N(c1ccc(F)cc1)C1CCN(C2CC3CCC(C2)N3C(=O)OCC)CC1 (centres unmarked)	–	++ (efficacy was calculated to be from 100% to 25%)	++ (efficacy was calculated to be from 100% to 25%)	++ (efficacy was calculated to be from 100% to 25%)
